Assay results published in patent US20260120837A1, “METHODS OF DOSING THERAPEUTIC AGENTS” (Fusion Pharmaceuticals Inc., priority 2022, published 2026).

Experiments:
[1] = PK parameters and Ctrans, two-compartment model with nonlinear M-M clearance only (cetuximab, alemtuzumab); type: in vivo, human; conditions: calculated by Equation (3)
Description: For this kind of PK model, Ctrans is determined according to Equation (3): […]
PK parameters listed in Table 1, i.e., Vc, Vp, Q, VM and KM, were obtained based on the protocols disclosed in Dirks et al., 2008 and Mould et al., 2007, with modification to be consistent with the current model description provided herein.

[2] = cited from earlier work

Cetuximab: antibody; PK described by two-compartment model with nonlinear only clearance
Ctrans [1]: 74 (μg/mL) | KM ([2]; M-M equation coefficient): 74 (μg/mL) | VM ([2]; M-M equation coefficient): 4.38 (mg/hour) | Vc ([2]; central compartment distribution volume): 2.83 (L) | Q ([2]; exchange rate between compartments): 0.103 (L/hour) ^ | Vp ([2]; peripheral compartment distribution volume): 2.43 (L)
